The efflux ratio is the permeability from basolateral to apical divided by that in the opposite direction, in the common usage.

This is an account of results in article PMC11637191, “The pH-dependence of efflux ratios determined with bidirectional transport assays across cellular monolayers” (International Journal of Pharmaceutics: X, 2024).

Structures are written as SMILES.

In data set [1] the test system is P-gp (MDR1). Kind of data set: in vitro. The conditions noted are these: dog.
Data set [2] relates to MDCK-II-MDR1 cells. The settings on record: pH 7, iso-pH method.

Regarding `COc1cccc2c1C(=O)c1c(O)c3c(c(O)c1C2=O)C[C@@](O)(C(=O)CO)C[C@@H]3O[C@H]1C[C@H](N)[C@H](O)[C@H](C)O1` [Doxorubicin], the efflux ratio in data set [1] (MDCK-MDR1, pH 5) turned out to be 0.6; in data set [1] (MDCK-MDR1, pH 6) it was 1.4; in data set [1] (MDCK-MDR1, pH 7) it was 6; in data set [1] (MDCK-MDR1, pH 8), 26. The “logPapp, A⟶B” value in data set [2] was -6.89 P in cm/s.
